{"sequences": {"note": "Protein sequences, listed by entry. Tags and fused reporters are not part of them. Residues count along the entry.", "A483:HVD1 complex, UniProt P18206, 1-258 limits assumed": "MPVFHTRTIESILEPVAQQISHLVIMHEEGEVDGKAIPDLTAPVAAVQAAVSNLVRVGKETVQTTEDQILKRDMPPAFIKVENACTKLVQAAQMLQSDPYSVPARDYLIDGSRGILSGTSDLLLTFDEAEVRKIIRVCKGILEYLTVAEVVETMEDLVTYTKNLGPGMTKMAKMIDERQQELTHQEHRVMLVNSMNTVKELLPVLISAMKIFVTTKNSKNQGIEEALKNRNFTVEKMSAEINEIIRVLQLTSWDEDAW"}, "source": "patent US20180264072A1", "target": "talin H1-H4", "assay": "ITC; HVD1:A483 equimolar complex in the cell, talin H1-H4 as titrant", "data": [{"substance": "A483:HVD1 complex (from UniProt P18010 483-633; P18206 1-258)", "values": [{"measurement": "Kd", "result": 2940, "unit": "nM"}]}]}
